Results published in IntAct's records for PubMed 20603015.

B1: Fanconi anemia group D2 protein (Homo sapiens), Q9BXW9 (parent)
chain: MVSKRRLSKSEDKESLTEDASKTRKQPLSKKTKKSHIANEVEENDSIFVKLLKISGIILKTGESQNQLAVDQIAFQKKLFQTLRRHPSYPKIIEEFVSGLESYIEDEDSFRNCLLSCERLQDEEASMGASYSKSLIKLLLGIDILQPAIIKTLFEKLPEYFFENKNSDEINIPRLIVSQLKWLDRVVDGKDLTTKIMQLISIAPENLQHDIITSLPEILGDSQHADVGKELSDLLIENTSLTVPILDVLSSLRLDPNFLLKVRQLVMDKLSSIRLEDLPVIIKFILHSVTAMDTLEVISELREKLDLQHCVLPSRLQASQVKLKSKGRASSSGNQESSGQSCIILLFDVIKSAIRYEKTISEAWIKAIENTASVSEHKVFDLVMLFIIYSTNTQTKKYIDRVLRNKIRSGCIQEQLLQSTFSVHYLVLKDMCSSILSLAQSLLHSLDQSIISFGSLLYKYAFKFFDTYCQQEVVGALVTHICSGNEAEVDTALDVLLELVVLNPSAMMMNAVFVKGILDYLDNISPQQIRKLFYVLSTLAFSKQNEASSHIQDDMHLVIRKQLSSTVFKYKLIGIIGAVTMAGIMAADRSESPSLTQERANLSDEQCTQVTSLLQLVHSCSEQSPQASALYYDEFANLIQHEKLDPKALEWVGHTICNDFQDAFVVDSCVVPEGDFPFPVKALYGLEEYDTQDGIAINLLPLLFSQDFAKDGGPVTSQESGQKLVSPLCLAPYFRLLRLCVERQHNGNLEEIDGLLDCPIFLTDLEPGEKLESMSAKERSFMCSLIFLTLNWFREIVNAFCQETSPEMKGKVLTRLKHIVELQIILEKYLAVTPDYVPPLGNFDVETLDITPHTVTAISAKIRKKGKIERKQKTDGSKTSSSDTLSEEKNSECDPTPSHRGQLNKEFTGKEEKTSLLLHNSHAFFRELDIEVFSILHCGLVTKFILDTEMHTEATEVVQLGPPELLFLLEDLSQKLESMLTPPIARRVPFLKNKGSRNIGFSHLQQRSAQEIVHCVFQLLTPMCNHLENIHNYFQCLAAENHGVVDGPGVKVQEYHIMSSCYQRLLQIFHGLFAWSGFSQPENQNLLYSALHVLSSRLKQGEHSQPLEELLSQSVHYLQNFHQSIPSFQCALYLIRLLMVILEKSTASAQNKEKIASLARQFLCRVWPSGDKEKSNISNDQLHALLCIYLEHTESILKAIEEIAGVGVPELINSPKDASSSTFPTLTRHTFVVFFRVMMAELEKTVKKIEPGTAADSQQIHEEKLLYWNMAVRDFSILINLIKVFDSHPVLHVCLKYGRLFVEAFLKQCMPLLDFSFRKHREDVLSLLETFQLDTRLLHHLCGHSKIHQDTRLTQHVPLLKKTLELLVCRVKAMLTLNNCREAFWLGNLKNRDLQGEEIKSQNSQESTADESEDDMSSQASKSKATEDGEEDEVSAGEKEQDSDESYDDSD

Variants of: B1
Conditions: with fscn1_human FSCN1

Variant	effect of a mutation on the interaction
K561R	decreasing interaction
